## Apparent affinities of Ab-14 variants for a coronavirus HR2 peptide

Source: Li et al. 2023 (doi:10.1038/s41467-023-39022-2), MIT Lincoln Laboratory and A-Alpha Bio; data file from the FLAb repository.

The target is the same throughout: PDVDLGDISGINAS, from the HR2 region of SARS-CoV-2 spike.

Ab-14 is the parent antibody, in scFv form: VH, then a 15-residue (Gly4Ser)3 linker, then VL. The heavy chain is unchanged in all variants.
VH: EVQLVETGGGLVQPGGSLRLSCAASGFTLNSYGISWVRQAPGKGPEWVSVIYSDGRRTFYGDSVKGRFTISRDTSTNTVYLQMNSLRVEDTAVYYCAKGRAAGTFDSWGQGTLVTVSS
VL: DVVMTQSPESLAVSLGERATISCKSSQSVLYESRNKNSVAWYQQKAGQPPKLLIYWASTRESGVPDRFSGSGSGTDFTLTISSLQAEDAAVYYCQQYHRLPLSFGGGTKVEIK

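This is the validation round: designs drawn from the data on random variants, tested in the same kind of assay. Group labels follow the data file (Ctrl: baseline library sampled from a position-specific scoring matrix, with some repeated check sequences; Rand: our label for a block that the file lists under HC and that is probably the random mutants of the ten best first-round binders; GP: Gaussian process model; HC: hill climbing; Gen: genetic algorithm; Gibbs: Gibbs sampling; a sequence that several methods proposed may carry one label only). The assay is AlphaSeq: two haploid yeast populations carry antibody and antigen on their surface. The frequency of each diploid, read from paired DNA barcodes, reflects how well the two displayed proteins bind. Scores were corrected for input abundance and mapped to Kd with protein pairs of known affinity run in the same pool. There are six technical replicates.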

Substitutions are numbered in sequence along the VL above, starting at 1 (not Kabat). Variants here have at most six changes. The read-out is the apparent dissociation constant on a log10 scale (nM): the lower, the stronger. Replicates are averaged; those with no signal do not enter the mean. A pair that was not seen in any replicate is written "nd"; this usually means weak binding, but a binder can also be missed.

changes	group	mean log10 Kd (nM)	seen in
S25L+V29F+W56G+A57G	GP_HC	0.10	6/6
Q27E+V29L+L30E+K36N+T59A	Ctrl	3.13	3/6
S25L+S28E+V29M+L30E+W56Q+T59E	GP_Gibbs	0.00	6/6
N35D+W56E	Ctrl	0.30	6/6
S25L+W56S+E61M	GP_Gen	-0.02	6/6
S25N+W56S	Ctrl	0.41	6/6
S25V+V29N+L30P+W56N	GP_Gen	0.63	6/6
S25L+V29H+N35M+W56N+E61M	GP_Gen	-0.04	6/6
S25F+V29Y+S38A+W56Q	Ctrl	-0.41	6/6
S25L+S26Q+Q27M+V29E+Y31P+S62P	GP_Gibbs	1.26	6/6
Y31H+S38G+S58D	Ctrl	2.02	3/6
S25L+S26E+V29T+W56Q	GP_HC	0.44	6/6
S25I+K36W+S38A+W56E+Q96D	GP_Gibbs	0.30	6/6
Y31F+E32A+K36H+A40D+W56D+T59Y	Rand	nd	0/6
S25F+K36S+S38A+W56E+Q96D	GP_Gibbs	0.26	6/6
T59S+Y97V	Ctrl	nd	0/6
S26P+V29T+K36M	Ctrl	1.57	6/6
S25V+S26L+S33G+W56H+S62D	GP_HC	-0.02	6/6
S25M+S26Q+S28G+W56G	GP_HC	-0.11	6/6
S33D+W56A+H98R+R99Q+S103A	Ctrl	0.04	6/6
K36V+A57D+E61V	Ctrl	1.25	6/6
S25Q+Y31M+K36C+W56D	GP_HC	0.48	6/6
S25E+N35R+K36L	Ctrl	nd	0/6
S25V+S26Q+W56N+E61C	GP_Gen	-0.18	6/6
S25L+S26G+S28N+W56D	Ctrl	0.03	6/6
S25V+S26E+V29H+W56N	GP_Gen	-0.20	6/6
S25M+R34Y+A57I	Ctrl	nd	0/6
S25L+Q27P+Y31G+E32M+N35A+W56N	GP_Gibbs	-0.33	6/6
S25L+Y31M+W56E+Q96D	GP_Gen	-0.12	6/6
S25L+V29W+W56D	GP_Gen	-0.74	6/6
Q27I+Y31G+W56D	GP_HC	-0.33	6/6
S25F+W56N+S62Q	GP_Gen	0.19	6/6
S25L+V29F+S38N+W56A	GP_Gen	-0.26	6/6
Q27P+V29G+N35M+W56H	GP_HC	0.29	6/6
S25L+W56D+S62D	GP_Gen	0.03	6/6
L30E+W56R+S62P	Ctrl	1.00	6/6
Y31L+K36Y+W56G+S58Y	Ctrl	0.97	6/6
W56K+T59Y+H98A+L102R	Ctrl	nd	0/6
K24H+S25L+Y31M+W56N+E61L	GP_Gen	-0.15	6/6
S25V+S26D+V29W+W56N	GP_Gen	-0.04	6/6
S26Q+Q27L+S38E+W56F+Y97P	Ctrl	nd	0/6
S25M+R34A+E61F	Ctrl	1.24	6/6
S25L+S38A+W56G+T59Q	GP_Gen	-0.47	6/6
S25I+V29D+L30E+Y97H	Ctrl	nd	0/6
S25F+L30G+W56E	GP_Gen	-0.32	6/6
S25F+S26Q+V29Q+W56N	GP_Gen	-0.07	6/6
S25L+S26Y+V29D+W56N+T59Q	GP_Gen	-0.32	6/6
S25A+S26Q+V29W+W56G+S103I	GP_HC	0.49	6/6
S25L+S28L+V29M+E32G+H98S	Ctrl	0.14	6/6
S25M+Q95T+R99I	Ctrl	0.98	5/6
S25V+S26L+L30G+S33G+W56H+S62D	GP_HC	-0.02	6/6
Y31E+Q96N	Ctrl	1.09	2/6
S25L+S26Q+V29T+W56N	GP_Gen	0.19	6/6
Q27V+L30K+Y31F+W56D	GP_HC	0.61	6/6
S25L+Q27M+V29H+W56N	GP_Gen	-0.09	6/6
S25A+S26P+W56H+S62D+Q96S	GP_HC	0.14	6/6
N35R+W56R+H98G	Ctrl	nd	0/6
V29L+K36A+A57S+S62V+R99W	Ctrl	1.63	1/6
S25L+S26M+S28Q+V29T+S33T+S62E	GP_HC	0.79	6/6
Q27F+Y31F+W56D+E61S	GP_HC	0.66	6/6

Top 9 of the variants detected in all replicates, tightest first:

changes	group	mean log10 Kd (nM)	seen in
S25L+V29W+W56D	GP_Gen	-0.74	6/6
S25L+S38A+W56G+T59Q	GP_Gen	-0.47	6/6
S25F+V29Y+S38A+W56Q	Ctrl	-0.41	6/6
S25L+Q27P+Y31G+E32M+N35A+W56N	GP_Gibbs	-0.33	6/6
Q27I+Y31G+W56D	GP_HC	-0.33	6/6
S25F+L30G+W56E	GP_Gen	-0.32	6/6
S25L+S26Y+V29D+W56N+T59Q	GP_Gen	-0.32	6/6
S25L+V29F+S38N+W56A	GP_Gen	-0.26	6/6
S25V+S26E+V29H+W56N	GP_Gen	-0.20	6/6

Of ten entries with the parent sequence, four were seen in most replicates (averages 0.34 to 2.37), three in one and three in none, so single entries are noisy. In the paper, a design with two or fewer of six values counts as a poor binder. Three control strains display no target. For all light chain designs, 4% of the pairings with them gave a signal, with a median of 2.64 and one signal in twenty below 1.59, so weak values seen in few replicates may be background. The range of this assay differs from that of the first round, and the authors advise against merging the two.